This is a selection; strong and weak results do not stand in their true shares. Active and inactive are the calls of the source.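 The calls were made as follows: active = mean inhibition across replicates above a set limit taken from the earlier primary screen (cut at about 21% in these data); inactive = the rest.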
biological target: Receptor-interacting serine/threonine-protein kinase 2 (Homo sapiens) (UniProt O43353); test: inhibitors of RIPK2 association with NOD2 – fluorescence, CHO cells, BLA complementation, triplicate, confirmation (AID 624370); details: CCF4 FRET, at 4.98 µM, active compounds read high;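 also: 0% = DMSO-only wells and the high end = clavulanate BLA-blocked wells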

The chains behind the UniProt entries cited, without tags or fusion partners.
UniProt O43353, whole entry, looked up: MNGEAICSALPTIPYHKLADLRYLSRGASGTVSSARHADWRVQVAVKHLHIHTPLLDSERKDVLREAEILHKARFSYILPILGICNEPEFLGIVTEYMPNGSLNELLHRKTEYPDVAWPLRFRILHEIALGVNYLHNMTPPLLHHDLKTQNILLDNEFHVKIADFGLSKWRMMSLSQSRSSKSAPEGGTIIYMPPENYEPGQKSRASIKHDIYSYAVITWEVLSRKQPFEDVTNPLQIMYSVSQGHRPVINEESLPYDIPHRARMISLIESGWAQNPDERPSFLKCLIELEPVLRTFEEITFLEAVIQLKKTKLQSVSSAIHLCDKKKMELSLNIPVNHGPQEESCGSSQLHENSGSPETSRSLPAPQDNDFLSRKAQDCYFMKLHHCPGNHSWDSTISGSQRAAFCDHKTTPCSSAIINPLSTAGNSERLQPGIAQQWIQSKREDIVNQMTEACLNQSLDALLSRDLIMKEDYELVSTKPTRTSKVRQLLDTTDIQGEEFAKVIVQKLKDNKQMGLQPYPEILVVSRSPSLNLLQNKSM

SMILES | inhibition
CN(C)C(=O)c1cc([N+](=O)[O-])cc2c1-c1c(cc([N+](=O)[O-])cc1[N+](=O)[O-])C2=O | active: 51.1%
C[N+]1=C2C=CC=CC=C2SC12C([N+](=O)[O-])=CC([N+](=O)[O-])=C[C-]2[N+](=O)[O-] (configuration not stated) | inactive: 13.9%
